# Experimental data as given in patent publication US20150044245A1, “PARTIAL MHC CONSTRUCTS AND METHODS OF USE” (Oregon Health & Science University, priority 2012, published 2015).
# Target: CD74 (MHC class II invariant chain) of DR*1501-Tg mouse splenocytes and monocytes (mouse) (UniProt P04441)
# Experiment: direct saturation binding of FITC-labeled construct to CD74 immuno-adsorbed on Protein L/ln-1 beads; SDS-PAGE densitometry; one-site fit
substance,measurement,value
RTL1000 (pDR2/hMOG-35-55) (peptide-MHC),Kd,4.47 nM
